Test results from patent publication US7112654B2, “Ligand for vascular endothelial growth factor receptor” (Supratek Pharma Inc., priority 2001, dated 2006).

Legend:
[1] = system: human umbilical vein endothelial cells (HUVEC); conditions: 24 h
[2] = system: B16BL6 melanoma-induced angiogenesis in C57BL/6 mice; experiment: Tumor-induced angiogenesis, dorsal air sac-chamber; assay type: in vivo, mouse; conditions: 20 mg/kg/day s.c., days 0 to 5, evaluated day 7
Experimental: For tumor-induced angiogenesis, the dorsal air sac-chamber was carried out in female C57BL/6 mice as described else (Itoh, T et al., Cancer Res., 58: 1048–1051, 1998). Murine B16BL6 cell, a VEGF-producing melanoma, were washed three times and suspended in HBSS at a concentration of 5×10^6 cells/ml. A Millipore (Millipore Co., Redford, Mass.) was filed with 0.2 ml of either a cell suspension of HBSS and then implanted s.c. into the dorsal side of mice (day 0). Control mice were implanted with Millipore chambre along. The animals (5 mice per group) were treated s.c. with 20 mg/kg of the modified peptide (SEQ ID NO: 4) or the vehicle into 1 cm around the air sac. Treatments were performed daily from days 0 to 5.
To evaluate the antiangiogenic activity of the compounds, 7 days after tumor implantation, the animals were sacrificed and a wide rectangular incision was made in the skin of air sacs and photgraphed. The significant stimulation of angiogenesis was detected in mice implanted with B16BL6 melanoma cells. The treatment of animals with compound of this invention at dose 20 mg/kg/day inhibits tumor-induced angiogenesis to 70%.

CC[C@H](C)[C@H](NC(=O)[C@H](CCC(=O)O)NC(=O)[C@H](Cc1ccc(O)cc1)NC(=O)CNC(=O)[C@H](CC(N)=O)NC(=O)c1ccc2c(c1)C(=O)OC21c2ccc(O)cc2Oc2cc(O)ccc21)C(=O)N[C@@H](CCC(=O)O)C(=O)N[C@@H](Cc1c[nH]c2ccccc12)C(=O)N[C@@H](Cc1ccc(O)cc1)C(=O)N[C@@H](CO)C(=O)N[C@@H](Cc1c[nH]c2ccccc12)C(=O)N[C@H](C(=O)N[C@H](C(=O)N[C@@H](Cc1c[nH]cn1)C(=O)NCC(=O)N[C@@H](CCSC)C(=O)N[C@@H](Cc1ccc(O)cc1)C(N)=O)[C@@H](C)O)C(C)C [SEQ ID NO: 4]
IC50 [1]: 5 µM | inhibition of tumor-induced angiogenesis [2]: 70%
